Reference: article PMC8338886 (Clinical Cancer Research, 2021)

Biological target: T1, Human PD-L2 (human, UniProt Q9BQ51)
T1 sequence: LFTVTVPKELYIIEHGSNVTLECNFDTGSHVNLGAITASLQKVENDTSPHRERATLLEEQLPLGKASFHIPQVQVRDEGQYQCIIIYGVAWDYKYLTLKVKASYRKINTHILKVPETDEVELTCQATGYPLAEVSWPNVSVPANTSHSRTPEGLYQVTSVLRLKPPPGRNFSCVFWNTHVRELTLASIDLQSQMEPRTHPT
Assay: SPR

- Kd: 547 nM
B1: sPD-1 wild-type Fc (Fc fusion)
chain: LDSPDRPWNPPTFSPALLVVTEGDNATFTCSFSNTSESFVLNWYRMSPSNQTDKLAAFPEDRSQPGQDCRFRVTQLPNGRDFHMSVVRARRNDSGTYLCGAISLAPKAQIKESLRAELRVTERRAEVPTAHPSPSPRPAGQFQTLV
